For one substance, Ki results are on record in PMC3717276, “Optimization and validation of mitochondria-based functional assay as a useful tool to identify BH3-like molecules selectively targeting anti-apoptotic Bcl-2 proteins” (BMC Biotechnology, 2013).

What is called pKi is −log10 of the Ki, conventionally taken in molar units.

The assay deals with Human Bcl-2 protein (isoform 2 construct), N-terminal 6xHis tagged recombinant protein (human). The assay is described as follows: fluorescence polarisation; competition: Mcl-1 (20 nM) or Bcl-2 (40 nM) pre-incubated with FAM-Bid (2 nM and 2.5 nM), tested BH3 peptide added, 2-3 h; 100 mM potassium phosphate, pH 7.5, 100 ug/ml bovine gamma globulin, 0.02% sodium azide; Ki calculated from IC50.

pKi: −log10 of the molar value. A value given as a limit tells only on which side of the number the result lay.

Take “Bim BH3 peptide, 26-mer (residues 81-106)”: the pKi was above 9.00.
